These are literature values, as cited in patent US20070043110A1, “Nontoxic potentiation sensitization of ovarian cancer therapy by supplementary treatment with vitamins” (Summa Health System, priority 2001, published 2007).

The structures appear in SMILES notation.

For the data set the following is noted: oral 500 mg/Kg daily for 30 days; cited from earlier work.

`CC1=CC(=O)c2ccccc2C1=O` [Vitamin K3, 2-Methyl-1,4-Naphthoquinone]: the chronic toxicity entry is “toxic”.
